Experiments:
human macrophages = test: H2O2 production by IFN-γ activated macrophages (scopoletin fluorometric assay); assay type: cell-based; details: 3 h pretreatment
Excerpt: Monocytes obtained by leukophoresis of healthy volunteers were purified on Ficoll-hypaque and Percoll (Pharmacia, Piscataway, N.J.) gradients and placed into microtiter well (5×10^5 /well) in RPMI-1640 (GIBCO, Grand Island, N.Y.) with 5% pooled normal human serum and 1% gentamycin (M. A. Bioproducts, Walkinville, Md.). The cells were greater than 95% macrophages as judged by esterase staining. (The Manual of Macrophage Methodology, Herrscowitz et al., eds. Marcel Dekker, N.Y., p. 199 (1981)). After one day in culture, non-adherent cells were rinsed away and the macrophages were treated, e.g., with human CGRP, Calcitonin, or LP as described below. Following treatment, the macrophages were incubated for three days with a concentration of from 100 to 400 units interferon gamma (Amgen Biologicals, Thousand Oaks, Calif.), in medium with 15% pooled normal human serum, at which time the H2 O2 concentration in the cells was determined.
H2 O2 production by macrophages was determined by fluorometric assay using the fluorophore scopoletin (de la Harpe et al., J. Immunol. Methods 78: 323 (1985)). […] The amount of H2 O2 released per culture is determined as nanomoles H2 O2. […] DNA was determined by a fluorescence assay (Kissane et al., J. Biol. Chem. 233: 189 (1958). […]

rabbit skin = test: Vasodilator assay: erythema after intradermal injection into rabbit skin; assay type: in vivo
Protocol: Reversed-phase high-performance liquid chromatography (HPLC) on the extract of 100 pairs of salivary glands is depicted in FIG. 1. 100 pairs of salivary glands were dissected in PBS. Lysates were made by freeze-thawing. The extract was spun in a microcentrifuge for 30 seconds before being applied to the column. A C-18 micropellicular HPLC column (Glycotech) was equilibrated with 20% acetonitrile/0.1% trifluoroacetic acid at 50° C. at a flow rate of 0.6 ml/minute. Three minutes after injection, a linear gradient was run for 20 minutes reaching 44% acetonitrile. Fractions were collected every 30 seconds and assayed for vasodilatory activity. The vasodilator assay was performed by diluting material from the gradient 10 fold and injecting 50 μl intradermally into the shaved back of a rabbit. The development of erythema at the injection site corresponded with the peak indicated. One μg of human CGRP, used as a control peptide, eluted as a peak of equal area, five minutes later. This observation implies that approximately 10 nanograms of LP are present per pair of salivary glands.
The amount of LP injected into the skin was based on the area of the absorbing peak collected from RP-HPLC. […] The area of resultant erythema was measured at 2 hours (triangles) and again at 4 hours (circles). […]

[1] = test system: BALB/c peritoneal macrophages; test: Macrophage presentation of OVA to OVA-specific T-cell line (3H TdR incorporation); assay type: cell-based, mice; details: rat CGRP 1.25×10^-7 M 3 hrs
Excerpt: An OVA-specific T-cell line was produced in BALB/c mice (Titus et al., J. Immunol. 133:1594 (1984)). The line was L3T4^+ and was maintained by successive cycles of restimulation and rest in vitro (Kimono et al., J. Exp. Med. 152:759 (1980)). As a source antigen-presenting cells, BALB/c peritoneal cells (Titus et al., Clin. Exp. Immunol. 55:157, 1984) were placed into microtiter wells (10^4 /well) in Dulbecco's modified Eagle's medium (DMEM) (Maryanski et al., Eur. J Immunol. 12:401 (1982) supplemented with 5% fetal calf serum (Hyclone, Logan, Utah) and cultured overnight. Non-adherent cells were rinsed out of the wells, and medium with or without rat CGRP (1.25×10^-7 M) was added as a pre-incubation step. Three hours later the wells were rinsed to remove the CGRP and the indicated number of OVA-specific T-cells (Sigma, St. Louis, Mo.) were added. At varying times thereafter, the wells were pulsed with 1 μCi^3 H methylthymidine (^3 H TdR) (Amersham, Arlington Heights, Ill.) and thymidine incorporation was assessed (Titus et al., J. Immunol. 133:1594 (1984)).
BALB/c peritoneal macrophages (10^4 /well) were used as antigen-presenting cells. The macrophages were preincubated in 1.25×10^-7 M rat CGRP for three hrs., and the CGRP was then washed away. OVA-specific T-cells and OVA were then added to the cultures to assist the ability of the CGRP-treated macrophages to present antigen as measured by the degree of proliferation of the T-cells. Forty-eight hours later the cultures were pulsed with ^3 H TdR to assess the degree of proliferation of the T-cells. The numbers in Table 5 below represent the mean thymidine incorporation of quadruplicate cultures±SD. Background responses (macrophages+T-cells but no OVA, or T-cells+OVA but no macrophages) ranged between 300 to 500 CPM. Similar results were obtained with varying numbers (10^3 to 2×10^4 /well) of peritoneal cell macrophages. The results in the Table indicate that the ability of murine macrophages to present OVA to an OVA-specific T-cell line was inhibited by CGRP. Similar results were obtained with different numbers of T-cells and different doses of OVA to stimulate the cultures.

calcitonin gene-related peptide (ACDTATCVTHRLAGLLSRSGGVVKNNFVPTNVGSKAF; Calcitonin gene-related peptide 1; UniProt P06881 83-119, looked up) [CGRP, neuropeptide calcitonin gene-related peptide; human form in the skin and H2O2 tests]
lowest concentration significantly inhibiting H2O2 production (human macrophages; IFN-γ 200 units/ml, 72 hrs): 2.5 nM | effect of higher concentrations on H2O2 production (human macrophages; concentrations above 2.5×10^-9 M, IFN-γ): completely abrogated | erythema at injection site at 4 hours (rabbit skin; 4 hours after injection): only residual erythema | amount giving equivalent erythema (rabbit skin; two hours after injection, 50 μl PBS into shaved back of rabbit): 50 nanograms | Response (CPM ± SD) to stimulation with 200 mg/ml OVA ([1]; 15,000 T cells/well): 1,620 ± 910 CPM | Response (CPM ± SD) to stimulation with 400 mg/ml OVA ([1]; 15,000 T cells/well): 2,620 ± 700 CPM | Response (CPM ± SD) to stimulation with 200 mg/ml OVA ([1]; 30,000 T cells/well): 830 ± 500 CPM | Response (CPM ± SD) to stimulation with 400 mg/ml OVA ([1]; 30,000 T cells/well): 3,380 ± 1,870 CPM

— patent publication US5763271A, “Vasodilatory and immune suppressant peptides” (The President and Fellows of Harvard College, priority 1994, dated 1998)
